We go through 1 substance from paper PMC4191403.

Amino acid sequences for entries named in this document (tags omitted).
UniProt P38398, whole entry: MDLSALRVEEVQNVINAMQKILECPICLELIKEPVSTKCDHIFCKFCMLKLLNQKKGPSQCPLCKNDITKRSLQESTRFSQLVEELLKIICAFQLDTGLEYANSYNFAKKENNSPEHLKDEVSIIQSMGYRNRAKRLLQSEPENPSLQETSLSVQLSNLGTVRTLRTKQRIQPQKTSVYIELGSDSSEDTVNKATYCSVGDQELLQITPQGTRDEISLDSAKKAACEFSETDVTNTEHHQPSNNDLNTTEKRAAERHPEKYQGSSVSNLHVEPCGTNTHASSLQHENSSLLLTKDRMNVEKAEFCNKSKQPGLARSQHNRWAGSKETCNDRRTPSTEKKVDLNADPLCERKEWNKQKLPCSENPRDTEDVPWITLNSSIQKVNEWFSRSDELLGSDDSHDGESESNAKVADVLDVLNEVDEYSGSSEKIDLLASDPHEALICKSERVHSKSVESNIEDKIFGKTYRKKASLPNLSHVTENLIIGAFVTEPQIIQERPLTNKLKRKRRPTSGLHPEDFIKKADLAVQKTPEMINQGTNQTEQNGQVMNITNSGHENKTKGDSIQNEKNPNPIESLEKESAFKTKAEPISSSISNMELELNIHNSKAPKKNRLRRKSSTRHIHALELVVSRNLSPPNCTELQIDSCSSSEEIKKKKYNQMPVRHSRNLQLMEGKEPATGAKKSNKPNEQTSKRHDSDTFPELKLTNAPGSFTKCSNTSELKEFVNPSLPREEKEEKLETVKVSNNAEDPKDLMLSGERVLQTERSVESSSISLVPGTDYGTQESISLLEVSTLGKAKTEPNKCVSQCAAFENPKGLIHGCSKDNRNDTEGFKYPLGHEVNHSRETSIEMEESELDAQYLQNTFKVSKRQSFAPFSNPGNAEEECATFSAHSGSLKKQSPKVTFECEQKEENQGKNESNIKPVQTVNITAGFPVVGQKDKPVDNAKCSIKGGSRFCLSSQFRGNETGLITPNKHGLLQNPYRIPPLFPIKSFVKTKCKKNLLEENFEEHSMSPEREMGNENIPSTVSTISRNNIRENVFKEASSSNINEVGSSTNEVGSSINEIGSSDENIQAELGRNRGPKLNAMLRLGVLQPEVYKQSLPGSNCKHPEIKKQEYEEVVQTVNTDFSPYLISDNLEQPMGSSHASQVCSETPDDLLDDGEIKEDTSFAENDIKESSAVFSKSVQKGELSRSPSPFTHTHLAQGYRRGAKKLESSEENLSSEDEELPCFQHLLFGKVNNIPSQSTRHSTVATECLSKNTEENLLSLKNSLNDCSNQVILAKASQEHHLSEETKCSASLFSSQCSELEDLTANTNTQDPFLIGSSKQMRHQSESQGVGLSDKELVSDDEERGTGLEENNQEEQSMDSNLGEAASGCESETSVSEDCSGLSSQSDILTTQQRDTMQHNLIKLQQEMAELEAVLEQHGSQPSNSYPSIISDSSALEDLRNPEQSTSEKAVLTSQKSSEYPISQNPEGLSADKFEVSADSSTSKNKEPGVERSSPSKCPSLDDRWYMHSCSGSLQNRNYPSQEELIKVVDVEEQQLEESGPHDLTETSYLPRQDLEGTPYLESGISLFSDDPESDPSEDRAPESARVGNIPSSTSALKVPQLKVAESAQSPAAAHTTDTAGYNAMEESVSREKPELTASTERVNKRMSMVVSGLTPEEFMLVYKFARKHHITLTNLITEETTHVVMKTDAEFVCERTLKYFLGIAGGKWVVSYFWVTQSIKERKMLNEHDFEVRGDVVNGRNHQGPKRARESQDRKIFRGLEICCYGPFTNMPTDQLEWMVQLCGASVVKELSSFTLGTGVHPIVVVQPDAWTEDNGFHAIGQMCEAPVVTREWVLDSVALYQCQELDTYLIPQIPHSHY

This assay has as its target BRCA1 (Breast Cancer 1, early onset), endogenous in HeLa cells (human (endogenous in HeLa)) (UniProt P38398). The assay can be described thus: co-IP; endogenous proteins from HeLa lysate (50 mM Tris pH 7.5, 250 mM NaCl, 1 mM EDTA, 0.1% NP-40), antibody on protein G agarose, 4°C overnight; reciprocal IPs; cells mock or 10 Gy irradiated, with or without 100 μg/ml ethidium, asynchronous or synchronised in S or non-S phase.

“DNA-dependent protein kinase catalytic subunit (DNA-PKcs), endogenous in HeLa cells (a stretch of the chain, letters omitted) (natural protein)”: the decrease of the association in non-S phase compared to S phase is 82%.
